Values of other authors, collected in patent US11987637B1, “Prevention of disulfide bond reduction during recombinant production of polypeptides” (Genentech, Inc., priority 2007, dated 2024).

Tested on: HER2
Conditions: patients with extensive prior anti-cancer therapy; cited from earlier work

## trastuzumab: recombinant humanized version of the murine HER2 antibody 4D5
  clinical activity: clinically active
